Earlier results on one substance are cited in patent US11759495B2, “Upregulation of therapeutic T regulatory cells and suppression of suicidal ideations in response to inflammation by administration of nutraceutical compositions alone or combined with minocycline” (Therapeutic Solutions International, Inc., priority 2020, dated 2023).

One data set deals with iNOS. To be noted: 5 and 10 microM for 6-24 hr, vs macrophages without EGCG; cited from earlier work.
For a further data set, the system named is ulcerative colitis (UC). The conditions noted are these: cited from earlier work.
Another data set concerns LPS-induced ARDS. To be noted: 10 mg/kg ip; cited from earlier work.
Where [1] appears, read: 50 and 100 mg/kg/day, vs MD group.

As for epigallocatechin-3-gallate [EGCG], in the data set on iNOS, the “iNOS activity in soluble extracts” value is reported as “significantly lower”. Further, in the data set on ulcerative colitis (UC) (setting [1]), the “disease activity index (DAI)” value is “decreased” and the “spleen index (SI)” value was “decreased”. Also, the “splenic regulatory T-cell (Treg)/T helper 17 cell (Th17) ratio” value in the data set on ulcerative colitis (UC) (mouse, in vivo) is “regulate”. Also, in the data set on LPS-induced ARDS, the “histological lesions, wet-to-dry weight ratios, and myeloperoxidase (MPO) activity” value was “reduced”.
